# Experimental data published in patent US20200299400A1 (published 2020).
# T1: human GITR (human, UniProt Q9Y5U5 26-241)
# T1 sequence (looked up): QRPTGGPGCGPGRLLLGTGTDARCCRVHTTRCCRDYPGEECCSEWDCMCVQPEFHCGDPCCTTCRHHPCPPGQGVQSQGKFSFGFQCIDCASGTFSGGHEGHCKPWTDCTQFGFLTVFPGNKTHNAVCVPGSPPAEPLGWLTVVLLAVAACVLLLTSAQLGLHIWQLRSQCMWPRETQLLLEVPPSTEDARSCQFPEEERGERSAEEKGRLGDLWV
# Target: T1, human GITR
# Assay: cell-based or functional assay
binder,measurement,value
GITR.6-IgG1f (antibody) heavy: QVQLVESGGGVVQPGRSLRLSCAASGFTFSSYGMHWVRQAPGKGLEWVAVIWYEGSNKYYADSVKGRFTISRDNSKNTLYLQMNSLRAEDTAVYYCARGGSMVRGDYYYGMDVWGQGTTVTVSSASTKGPSVFPLAPSSKSTSGGTAALGCLVKDYFPEPVTVSWNSGALTSGVHTFPAVLQSSGLYSLSSVVTVPSSSLGTQTYICNVNHKPSNTKVDKRV[left out - human IgG1 Fc] light: AIQLTQSPSSLSASVGDRVTITCRASQGISSALAWYQQKPGKAPKLLIYDASSLESGVPSRFSGSGSGTDFTLTISSLQPEDFATYYCQQFNSYPYTFGQGTKLEIKRTVAAPSVFIFPPSDEQLKSGTASVVCLLNNFYPREAKVQWKVDNALQSGNSQESVTEQDSKDSTYSLSSTLTLSKADYEKHKVYACEVTHQGLSSPVTKSFNRGEC,"NFKB signaling (phospho-p65), CD4+ T cells, Emax",10.8%
same,"NFKB signaling (phospho-p65), CD8+ T cells, Emax",27%
